# Measured values taken from patent US20110091544A1 (priority 2009, published 2011).
# Some compounds may have been tested in ways that are not shown here.
# Legend:
# [1] = test system: dental outpatients; details: both oral and sublingual; cited from earlier work
# [2] = IV; cited from earlier work
# [3] = Phase 1 clinical study of sublingual sufentanil, slow-eroding formulation (Examples 1A, 1B), plasma pharmacokinetics, naltrexone-blocked
# [4] = Phase 1 clinical study of sublingual sufentanil, faster-eroding formulation (Examples 1C, 1D), plasma pharmacokinetics, naltrexone-blocked
# [5] = swallowed drug; cited from earlier work
Structure (SMILES),Tmax [1],administered dose excreted in 24 hours [2] [%],plasma elimination half-life [2] [min],"Tmax ([3]; 2.5 mcg single sublingual, slow-eroding formulation) [min]","Tmax ([3]; 4 × 5 mcg sublingual at 10-minute intervals, slow-eroding formulation) [min]","Tmax ([3]; 5 mcg IV, 10-minute infusion) [min]","Tmax ([3]; 5 mcg single sublingual, slow-eroding formulation) [min]","Tmax ([3]; 10 mcg single sublingual, slow-eroding formulation) [min]","Tmax ([4]; 4 × 10 mcg sublingual at 20-minute intervals, faster-eroding formulation) [min]","Tmax ([4]; 5 mcg IV, 10-minute infusion) [min]","Tmax ([4]; 10 mcg single sublingual, faster-eroding formulation) [min]","Tmax ([4]; 80 mcg single sublingual, faster-eroding formulation) [min]",bioavailability from the GI route [5] [%]
CCC(=O)N(c1ccccc1)C1(COC)CCN(CCc2cccs2)CC1,approximately 90 minutes,80,148,43.8 ± 7.8,69.6 ± 13.8,9.6 ± 1.8,46.2 ± 17.4,40.8 ± 13.2,84.6 ± 15,10.2 ± 0,50.4 ± 21,53.4 ± 21,–
CCC(=O)N(c1ccccc1)C1CCN(CCc2ccccc2)CC1,–,–,–,–,–,–,–,–,–,–,–,–,30
